Measured values from PMC9433822, “Enzymological and structural characterization of Arabidopsis thaliana heme oxygenase‐1” (FEBS Open Bio, 2022).

Target: T1, AtHO-1 (Arabidopsis thaliana, UniProt O48782)
T1 construct: gene HO1; mature protein residues 55-282 (transit peptide removed), N-terminal His tag kept, pET-28a(+), E. coli BL21(DE3); two molecules in the asymmetric unit
T1 sequence (O48782 55-282): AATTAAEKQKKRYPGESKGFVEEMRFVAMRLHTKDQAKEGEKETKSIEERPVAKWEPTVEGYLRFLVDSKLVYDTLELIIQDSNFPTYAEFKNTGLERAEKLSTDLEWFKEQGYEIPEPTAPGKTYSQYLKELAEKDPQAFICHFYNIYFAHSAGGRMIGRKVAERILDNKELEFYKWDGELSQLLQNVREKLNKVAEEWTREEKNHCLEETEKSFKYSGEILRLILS
Assay: isothermal titration calorimetry
Format: binding

Kd: 260 ± 10 nM
SMILES: C=CC1=C(C)C2=Cc3c(C=C)c(C)c4[n]3[Fe]([Cl])[n]3c(c(C)c(CCC(=O)O)c3=CC3=NC(=C4)C(C)=C3CCC(=O)O)=CC1=N2 [heme]
